In patent US20050192261A1, “Methods and reagents for the treatment of immunoinflammatory disorders” (priority 2003, published 2005):

Test system: TNFα secretion in white blood cells from human buffy coat stimulated with phorbol 12-myristate 13-acetate and ionomycin
Assay: TNFα secretion assay

SMILES	inhibition at 14 µM (read-out: percent inhibition of TNFα secretion, Clemizole HCl 14 μM, Nortriptyline HCl μM r5-r13: 0,0.26,0.52,1,2.1,4.2,8.3,17,33) [%]	inhibition at 28 µM (read-out: percent inhibition of TNFα secretion, Clemizole HCl 28 μM, Nortriptyline HCl μM r5-r13: 0,0.26,0.52,1,2.1,4.2,8.3,17,33) [%]	inhibition at 16 µM (read-out: percent inhibition of TNFα secretion, Promethazine HCl 16 μM, Nortriptyline HCl μM r5-r13: 0,0.26,0.52,1,2.1,4.2,8.3,17,33) [%]	inhibition at 31 µM (read-out: percent inhibition of TNFα secretion, Promethazine HCl 31 μM, Nortriptyline HCl μM r5-r13: 0,0.26,0.52,1,2.1,4.2,8.3,17,33) [%]
Clc1ccc(Cn2c(CN3CCCC3)nc3ccccc32)cc1 [Clemizole HCl, clemizole]	8.96	28.9	–	–
CC(CN1c2ccccc2Sc2ccccc21)N(C)C (stereo not shown) [Promethazine HCl, promethazine]	–	–	51.4	81.1

Counter-ions that a name gives are not always drawn.
